Sampled rows, rich in hits. Any-hit rate of the full collection: about 1.8%.
AF4-AF9 inh = blocks AF4 peptide binding to human AF9; inhibition, % at 10 µM; P42568; AlphaScreen, biotin-AF4 peptide binding to FLAG-AF9; 0.47% of 350,000 active;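 active means every replicate reaching a set inhibition limit, whatever the replicate mean, cut at about 25% in these data; inconclusive means mean inhibition reaches that limit but some replicates miss it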
Yeast UUG start-1 = alters start codon recognition fidelity in yeast. S. cerevisiae UUG-firefly luciferase reporter, luminescence/redox ratio. AID 602363. activity score, % at 18.7 µM. hit rate 0.13% among 350,000;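 active = replicate mean at a twofold rise or more, about +100% in these data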;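 note: firefly luciferase made from a UUG start codon reports start codon fidelity; reporter light over untreated wells divided by growth signal over untreated wells; some hits fall short of that in this replicate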
RAD54 inh = RAD54 (human) branch migration inhibition; 0.14% of 360,000 active; Q92698; inhibition, % at 10.4 µM; AID 602329; RAD54 Holliday junction branch migration, FAM/BHQ fluorescence;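 active means mean normalized replicate activity at least 40 and at least half of replicates scoring 40 or more; inconclusive means only one of the two criteria met; inactive means mean below 40 and under half of replicates reaching 40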;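 further: inhibitors cause a drop in the FAM fluorescence signal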
E-selectin induc = E-selectin induction on HUVECs; P16581; 0.37% of 260,000 active; activation, % at 7.58 µM; HUVEC E-selectin immunofluorescence imaging; normalized: neutral wells 0, TNF-alpha wells 100; AID 686992;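 active means mean E-selectin-positive cell signal at least 10% of the positive control, reached in at least 60% of replicates, without over 20% cell loss; inconclusive means no rule given, readout overlaps actives, possibly toxicity-flagged; inactive means the rest, including those meeting only one limit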
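material = human umbilical vein endothelial cells (HUVEC), E-selectin induction | quantity = 3,000 cells/well | medium = EGM-2 growth medium on 0.1% gelatin-coated wells | technique = immunofluorescence imaging | read-out basis = % PE-positive cells | control set = TNF-alpha positive control, DMSO neutral control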
SIRT5 inh = blocks human SIRT5 desuccinylation of peptide | Q9NXA8 | Purified SirT5, succinyl-peptide AMC, trypsin-coupled fluorescence | inhibition, % at 15 µM | 1.1% of 330,000 active | AID 652115; in the data active means inhibition above about 15%; inconclusive means no clear call, values can overlap the other calls
RAD52 anneal inh = RAD52 (human) annealing inhibition; P43351; recombinant RAD52 DNA annealing, FRET fluorescence; inhibition, % at 18.7 µM; 0.46% of 360,000 active;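 active means every replicate showing at least 50% inhibition; inconclusive means mean inhibition at least 50% but not in every replicate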
Yeast UUG start-2 = alters UUG start codon use in yeast; activation, % at 38 µM; 540 tested, under 10 active; S. cerevisiae UUG-start firefly luciferase, luminescence, 4 h; 100% means double the DMSO signal; AID 652061; shares compounds with Yeast UUG start-1;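 active means signal increase whose fitted curve reaches an absolute level of 40 at a concentration under 10 µM; inactive means activity opposite to the expected increase, or the rest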
Numbers stand for hits; – = inactive; ? = inconclusive; · = no result.

SMILES	AF4-AF9 inh	Yeast UUG start-1	RAD54 inh	E-selectin induc	SIRT5 inh	RAD52 anneal inh	Yeast UUG start-2
C[C@@H]1CCCCO[C@@H](CN(C)Cc2ccc3c(c2)OCO3)[C@@H](C)CN([C@@H](C)CO)C(=O)c2cc(NC(=O)CCC(F)(F)F)ccc2O1	–	–	–	–	–	–	·
CC(C)[N+](C)(C)CC#CC(O)(c1ccccc1)c1ccccc1	–	·	·	·	–	–	–
C[N+]1(CC#CC(O)(c2ccccc2)c2ccccc2)CCCC1	–	·	·	–	–	–	–
CO[C@@H]1CN(C)C(=O)c2ccc(NC(=O)c3ccccc3F)cc2OC[C@H](C)NC[C@@H]1C	–	–	–	–	–	–	·
COc1ccc(NC(=S)N(CCc2ccncc2)C(C)C)cc1Cl	–	–	–	·	–	–	·
CC(C)N(CCc1ccncc1)C(=S)Nc1ccc(F)c(Cl)c1	–	262.9	–	·	–	–	–
COc1cc(S(=O)(=O)N2CCOCC2)ccc1N	–	·	·	·	–	–	·
COc1cc(S(=O)(=O)N2CCOCC2)ccc1F	·	196.1	–	·	·	·	–
CC(=O)N(C)C[C@@H]1Oc2cc(C#C[C@H](C)O)ccc2S(=O)(=O)N([C@H](C)CO)C[C@@H]1C	–	–	–	–	–	–	·
CC(=O)N(C)C[C@@H]1Oc2cc(C#C[C@@H](C)O)ccc2S(=O)(=O)N([C@@H](C)CO)C[C@@H]1C	–	121.2	–	–	–	–	–
COCC#Cc1ccc2c(c1)O[C@@H](CN(C)Cc1cccnc1)[C@@H](C)CN([C@@H](C)CO)S2(=O)=O	–	154.0	–	–	–	–	–
C/C=C/c1ccc2c(c1)O[C@@H](CN(C)Cc1cccc(F)c1)[C@@H](C)CN([C@H](C)CO)S2(=O)=O	–	105.5	–	–	–	–	–
COCC#Cc1ccc2c(c1)O[C@H](CN(C)Cc1cccnc1)[C@@H](C)CN([C@@H](C)CO)S2(=O)=O	–	–	–	–	–	–	·
CCC(=O)N(C)C[C@H]1Oc2cc(C#Cc3ccccc3)ccc2S(=O)(=O)N([C@@H](C)CO)C[C@@H]1C	–	–	–	–	–	–	·
CCC(=O)N(C)C[C@@H]1Oc2cc(C#Cc3ccccc3)ccc2S(=O)(=O)N([C@@H](C)CO)C[C@@H]1C	–	183.4	–	–	–	–	–
CO[C@H]1CN(C)C(=O)c2cc(NC(=O)C3CCC3)ccc2OC[C@@H](C)N(Cc2ccccn2)C[C@H]1C	·	·	·	–	·	·	·
COc1ccc2c3c([nH]c2c1)[C@@H](CO)N(CC1CC1)CC31CN(C(=O)NC2CCCC2)C1	–	·	·	–	–	–	·
COc1ccc(NC(=O)Nc2ccc3c(c2)C(=O)N([C@@H](C)CO)C[C@H](C)[C@@H](CN(C)C(=O)Nc2c(C)noc2C)OCCCC[C@H](C)O3)cc1	–	–	–	–	–	–	·
C/C=C/c1ccc2c(c1)O[C@@H](CN(C)Cc1cncnc1)[C@@H](C)CN([C@H](C)CO)S2(=O)=O	–	109.6	–	–	–	–	–
C[C@@H](O)C#Cc1ccc2c(c1)O[C@@H](CN(C)Cc1cncnc1)[C@@H](C)CN([C@@H](C)CO)S2(=O)=O	–	103.2	–	–	–	–	–
C[C@H](O)C#Cc1ccc2c(c1)O[C@H](CN(C)Cc1cncnc1)[C@@H](C)CN([C@@H](C)CO)S2(=O)=O	–	–	–	–	–	–	·
CC(C)C#Cc1ccc2c(c1)O[C@@H](CN(C)Cc1ccccn1)[C@@H](C)CN([C@H](C)CO)S2(=O)=O	–	60.6	–	–	–	–	–
COc1cccc(C(=O)Nc2ccc3c(c2)C(=O)N(C)C[C@@H](OC)[C@H](C)CN(CC2CC2)[C@H](C)CO3)c1	–	–	–	–	–	–	·
Cc1ccc(OCCCCn2c(CO)nc3ccccc32)cc1	–	130.0	–	·	–	–	–
O=C(C1CCC1)N1C[C@@H]2[C@H](c3ccccc31)[C@H](CO)N2C(=O)c1ccccc1F	–	195.0	–	–	–	–	–
SMILES	AF4-AF9 inh	Yeast UUG start-1	RAD54 inh	E-selectin induc	SIRT5 inh	RAD52 anneal inh	Yeast UUG start-2
O=C(C1CCC1)N1C[C@H]2[C@@H](c3ccccc31)[C@H](CO)N2C(=O)c1ccccc1	–	101.1	–	–	–	–	–
C[C@H](CO)N1C[C@H](C)[C@@H](CN(C)C(=O)Nc2ccc(C(F)(F)F)cc2)Oc2ccc(NS(=O)(=O)c3ccc(Cl)cc3)cc2CC1=O	–	–	–	–	–	–	·
CCOc1ccccc1Nc1nc2ccccc2[nH]1	·	580.8	–	·	·	·	–
O=C(Cc1c[nH]c2ccccc12)N1CCc2ccccc21	·	344.1	–	·	·	·	–
O=C(CSc1c[nH]c2ccccc12)N1CCCc2ccccc21	–	–	–	·	–	–	·
COCC(=O)Nc1ccc2c(c1)C(=O)N(C)[C@@H]1CC[C@H](CC(=O)O)O[C@@H]1CO2	·	–	–	–	·	·	·
CC(=O)N1CSCC1C(=O)NNS(=O)(=O)c1ccccc1 (stereo unspecified)	–	124.0	–	·	–	–	–
O=[N+]([O-])c1cc(C(F)(F)F)ccc1Oc1cccnc1[N+](=O)[O-]	·	190.1	–	·	·	·	–
O=C(Nc1ccc(F)cc1)c1ccccc1Oc1ccc(C(F)(F)F)cc1[N+](=O)[O-]	·	·	·	–	·	·	·
O=C(CNC(=O)c1ccccc1Br)N/N=C/c1ccco1	–	308.0	–	·	–	–	–
O=C(CNC(=O)c1ccccc1F)N/N=C/c1ccco1	–	–	–	–	–	–	·
CCN(CC)CC(=O)N1c2ccccc2CCc2ccc(NC(=O)c3cc(OC)c(OC)c(OC)c3)cc21	–	active	–	–	–	–	–
O=C(C[C@@H]1C[C@@H]2c3cc(NC(=O)Nc4ccc(C(F)(F)F)cc4)ccc3O[C@@H]2[C@H](CO)O1)NCCc1ccccc1	–	–	–	–	–	–	·
COc1cccc(Oc2ccc(OC)cc2C(=O)O)c1	–	117.3	–	·	–	–	–
C[C@H]1CN([C@@H](C)CO)S(=O)(=O)c2ccc(-c3cccc(F)c3)cc2O[C@H]1CN(C)S(C)(=O)=O	–	–	–	–	–	–	·
C[C@@H]1CN([C@@H](C)CO)S(=O)(=O)c2ccc(-c3cccnc3)cc2O[C@H]1CN(C)C(=O)c1cccc(F)c1	–	–	–	–	–	–	·
C[C@H]1CN([C@@H](C)CO)S(=O)(=O)c2ccc(-c3cccnc3)cc2O[C@@H]1CN(C)C(=O)c1cccc(F)c1	–	213.8	–	–	–	–	–
Cc1ccc(S(=O)(=O)N(C)C[C@H]2Oc3cc(-c4cccc(F)c4)ccc3S(=O)(=O)N([C@@H](C)CO)C[C@@H]2C)cc1	–	106.1	–	–	?	–	–
CC(C)CC#Cc1ccc2c(c1)O[C@@H](CN(C)C(=O)c1cccnc1)[C@@H](C)CN([C@@H](C)CO)S2(=O)=O	–	121.2	–	–	–	–	–

Source: PubChem BioAssay
